Drawing on ChEMBL document CHEMBL1122477, “Neuroleptic activity and dopamine-uptake inhibition in 1-piperazino-3-phenylindans” (J Med Chem, 1983), this text covers IC50 for one molecule.

By UniProt entry, the sequences of proteins in these tests, tags left out.
UniProt P31652, whole entry: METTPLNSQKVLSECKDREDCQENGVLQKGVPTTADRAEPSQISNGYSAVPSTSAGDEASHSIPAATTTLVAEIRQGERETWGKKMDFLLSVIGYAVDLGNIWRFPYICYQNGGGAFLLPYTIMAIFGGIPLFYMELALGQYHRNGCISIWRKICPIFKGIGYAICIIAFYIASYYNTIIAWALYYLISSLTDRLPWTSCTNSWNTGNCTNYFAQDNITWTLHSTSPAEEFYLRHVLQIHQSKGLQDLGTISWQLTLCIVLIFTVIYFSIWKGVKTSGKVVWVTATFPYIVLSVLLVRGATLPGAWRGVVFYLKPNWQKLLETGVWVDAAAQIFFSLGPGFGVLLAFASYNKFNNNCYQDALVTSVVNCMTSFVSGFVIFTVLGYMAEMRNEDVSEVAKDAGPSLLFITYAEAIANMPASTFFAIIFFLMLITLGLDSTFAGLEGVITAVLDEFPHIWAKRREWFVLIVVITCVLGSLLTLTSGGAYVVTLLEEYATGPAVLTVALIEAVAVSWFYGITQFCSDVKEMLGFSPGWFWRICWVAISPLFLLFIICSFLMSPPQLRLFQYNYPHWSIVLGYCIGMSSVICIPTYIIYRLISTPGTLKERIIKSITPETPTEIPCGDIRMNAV

This assay concerns the target Sodium-dependent serotonin transporter (Rattus norvegicus, UniProt P31652). Kind of assay: Effect on synaptosomal uptake inhibition of 5-hydroxytryptamine (5-HT). It is filed as functional.

Molecule `CN1Cc2c(N)cccc2C(c2ccccc2)C1` (stereo unspecified) [NOMIFENSINE] returned an IC50 of 830 nM.

As usually defined, the IC50 is the midpoint of a concentration-inhibition curve. A higher IC50 goes with weaker potency.
